Reference: patent US10939692B2, “Method for culturing aquatic animals with aspartyl-dipeptides” (Cysal GmbH, priority 2015, dated 2021)

Tested on: Atlantic salmon (Salmo salar L.)
Assay: Salmon nutrition experiment (bioavailability, arginine retention, growth, safety)
Conditions: in vivo
Excerpt: The objective of the experiment was to examine the in vivo bioavailability of the above described “β-L-aspartyl-R” dipeptides in fish for the first time and consequently to determine their applicability as a substitute of free amino acids sources in Atlantic salmon (Salmo salar L.) nutrition. Therefore, varying supplementation levels of β-L-aspartyl-L-arginine in contrast to a mixture of free amino acids L-arginine and L-aspartic acid were compared.
315 Atlantic salmon (96.33 g±11.47 g; Danish Salmon AS, Hirtshals, DK) were acclimatized for 14 d in the experimental rearing system. The tanks of the system were part of a recirculation system (3.5 m^3 water volume, turnover rate 2 h^−1). The water purification system consisted of a mechanical filter, a moving bed filter, and a protein skimmer. […]
Samples of all experimental groups were analyzed for arginine retention in the lab of LUFA in Kiel. […] Crude protein content (N×6.25) was determined by the Kjeldahl method, crude lipid content after hydrolysis with hydrochloric acid followed by a petroleum ether extraction using a Soxhlet extraction system, DM after drying at 103° C. until constant weight, and ash content after 4 h incineration at 550° C. in a combustion oven (P300; Nabertherm, Lilienthal, Germany). Furthermore, gross energy was measured in a bomb calorimeter (C 200; IKA, Staufen, Germany). […]

Asp/Arg [reference compound] was tested, and the “retention rates compared to the dipeptide form of arginine (slopes of the regression)” value was 19.5%.
